Laboratory results taken from patent US20140057798A1, “PREDICTION OF DRUG SENSITIVITY OF LUNG TUMORS BASED ON MOLECULAR GENETIC SIGNATURES” (NESTEC S.A., priority 2011, published 2014).

Columns and labels:
H1975 cells = settings: H1975, 0.1 μM and 1 μM, two weeks, agar
H1650 cells = settings: H1650, 0.1 μM and 1 μM, two weeks, agar

Question: How did the “reduction of cell colony size, anchorage-independent growth” value (H1975 cells) turn out when `CN(C)C/C=C/C(=O)Nc1cc2c(Nc3ccc(F)c(Cl)c3)ncnc2cc1O[C@H]1CCOC1` [BIBW-2992] was run?
Answer: reduction of cell colony size formation

Question: What about the “reduction of cell colony size, anchorage-independent growth” value (H1650 cells) of the same compound?
Answer: reduction of cell colony size formation
